# Columns and labels:
# Sequences of proteins named here, by UniProt entry; tags and fusion partners are left off. A change or cut given only in a name is not applied to a line headed by its entry.
# UniProt P28335: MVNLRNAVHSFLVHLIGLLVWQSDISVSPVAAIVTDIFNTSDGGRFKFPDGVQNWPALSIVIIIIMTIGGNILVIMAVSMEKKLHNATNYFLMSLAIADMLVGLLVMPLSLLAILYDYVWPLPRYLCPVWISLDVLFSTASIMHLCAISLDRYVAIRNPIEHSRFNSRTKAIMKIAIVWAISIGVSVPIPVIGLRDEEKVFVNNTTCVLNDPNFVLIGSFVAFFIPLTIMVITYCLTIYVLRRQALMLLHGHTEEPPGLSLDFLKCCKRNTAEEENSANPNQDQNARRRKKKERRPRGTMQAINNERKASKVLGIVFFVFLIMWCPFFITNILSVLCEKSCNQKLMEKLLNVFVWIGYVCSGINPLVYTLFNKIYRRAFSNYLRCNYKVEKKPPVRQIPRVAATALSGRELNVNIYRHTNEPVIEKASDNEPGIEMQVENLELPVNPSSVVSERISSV
# [1] = biological target: T1, human serotonin 2C receptor (h-5-HT2C) (Homo sapiens (Human), UniProt P28335); test: 5-HT2C receptor agonistic action assay (FLIPR Calcium 4 Assay kit, h-5-HT2C/CHO cells); format: cell-based; settings: test material 10 μmol/L; 100% = 10 μmol/L 5-HT, −100% = 10 μmol/L SB206553; below 0% = inverse agonistic action
# Protocol: 3-1. The Cells and Inoculation Thereof
# (§1) In the experiment, human serotonin 2C receptor (h-5-HT2C) was expressed in CHO cells (h-5-HT2C/CHO). The cells were incubated with UltraCHO Lipuid (trademark) (manufactured by BioWhitakker) containing 1% FBS, 400 μg/mL Geneticin, 100 U/mL penicillin—100 μg/mL streptomycin (all manufactured by Sigma Aldrich) and 250 μg/mL Zeosin (manufactured by InvivoGen) in an incubator containing 5% CO2. […]
# The 5-HT2C receptor agonistic action was evaluated with FLIPR Calcium 4 Assay kit (manufactured by Molecular Devices). […] Then, the cells were set in FLIPR TETRA (trademark) (manufactured by Molecular Devices), to the cells was added the test material diluted with HHBP buffer, 2.5 mmol/L Probenecid (manufactured by Sigma) (concentration after dilution: 10 μmol/L) at an amount of 20 μL/well, and the fluorescence was measured. Then, in order to evaluate the antagonistic action of the test material, 20 μL/well of 5-HT solution (manufactured by Sigma, final concentration: 0.1 nmol/L) was further added to the cells, and the fluorescence was measured.
# The 5-HT2C receptor agonistic action of each test material was calculated as a rate of fluorescence enhancement wherein 100% was defined as a value when the cells were given 10 μmol/L 5-HT. […]
# [2] = biological target: T1, human serotonin 2C receptor (h-5-HT2C); test: [3H] mesulergine binding assay to evaluate affinity for human 5-HT2C receptor; settings: h-5-HT2C/CHO membrane preparation, read-out: Test Ex. 2: 5-HT2C receptor binding inhibition constant Ki
# Protocol: Mesulergine Binding Assay to Evaluate Affinity for Human 5-HT2C Receptor
# (§2) Preparation of the Cells and Membrane Preparations
# as §1, with “CO2; detached and collected using 50 mmol/L Tris-HCl (pH=7.4); homogenized with a homogenizer manufactured by Teflon (trademark); and then centrifuged (48,000×g, 25 min, 4° C.).” for “CO2.”
# A solution of 200 μL in total was prepared by mixing 50 μL of [^3H] mesulergine (manufactured by GE Healthcare) diluted with 50 mmol/L Tris-HCl (pH=7.4) (final concentration: about 2 nmol/L), 149 μL of the h-5-HT2C/CHO membrane preparation (protein amount: 20 μg/well), and 1 μL of the test drug dissolved in dimethylsulfoxide. […] The glass fiber filter was washed twice with 250 μL of 50 mmol/L Tris-HCl (pH=7.4), placed in a plastic vial containing 4 mL of liquid scintillator (ACS-II, manufactured by Amersham) or Ecoscint A (manufactured by National Diagnostics), and the remaining radioactivity on the filter paper was assayed with a liquid scintillation counter. […]
# [3] = biological target: human serotonin transporter (h-SERT) (Homo sapiens (Human), UniProt P31645); test: [3H] citalopram binding assay to evaluate human serotonin reuptake inhibitory action (h-SERT binding assay); settings: read-out: Test Ex. 1: h-SERT binding inhibition constant Ki
# Protocol: Citalopram Binding Assay to Evaluate Human Serotonin Reuptake Inhibitory Action
# as §2
# In the experiment, human serotonin transporter (h-SERT) was expressed in CHO cells (h-SERT/CHO). The cells were incubated with F12 containing 10% FCS, 500 μg/mL Geneticin and 100 U/mL penicillin—100 μg/mL streptmycin (all manufactured by Sigma Aldrich) in an incubator containing 5% CO2; detached and collected using a SERT buffer [50 mmol/L Tris-HCl comprising 120 mmol/L NaCl and 5 mmol/L KCl (pH=7.4)]; homogenized with a homogenizer manufactured by Teflon (trademark); and then centrifuged (50,000×g, 30 min, 4° C.). The precipitate was suspended again in the appropriate amount of SERT buffer (to give a membrane preparation), and stored at −80° C. until used. […]
# The [^3H] citalopram binding was measured according to the method disclosed in Owens M. J. et al., J. Pharm. […] The glass fiber filter was washed twice with […] of the SERT buffer, placed in a plastic vial containing 4 mL of liquid scintillator (ACS-II, manufactured by Amersham) or Ecoscint A (manufactured by National Diagnostics), and the remaining radioactivity on the filter paper was assayed with a liquid scintillation counter.
Compound,Test Ex. 3: 5-HT2C receptor agonistic action [1] [%],Ki [2] [nM],Ki [3] [nM]
CNCc1cc(OCc2ccccc2)n(CC2CC3CCC2C3)n1 (stereo not drawn) [Example 115],−103,5.4,1.5
CCCCn1nc(CNC)cc1OCc1cc(F)ccc1F [Example 242],−95,34,0.52

# Reference: patent US10183913B2, “Pyrazole compound” (Sumitomo Dainippon Pharma Co., Ltd., priority 2010, dated 2019)
